Measurements as given in patent publication US10947243B2, “Heteroaryl SYK inhibitors” (Boehringer Ingelheim International GmbH, priority 2014, dated 2021).

Biological target: Recombinant human Syk (amino acids 342-635) (Homo sapiens (Human), UniProt P43405)
Assay: Syk Kinase Test (Kinase Glo luminescence)
Format: biochemical
Details: read-out: SYK-inhibiton IC50-value
Procedure: The output file of the reader is a csv file that contains the well number and measured relative light units (RLU). For data evaluation and calculation, the measurement of the negative control was set as 100% ctrl and the measurement of the positive control was set as 0% ctrl. Based on this values the % value for the measurement of each substance concentration was calculated using an Assay Explorer software (Accelrys). Normally, the % ctrl values calculated are between 0% and 100% values but may also occur outside these limits in individual cases based on variability or compound characteristics. The IC50 values were calculated from the % ctrl values using Assay Explorer software. Calculation: [y=(a−d)/(1+(x/c)^b)+d] a=low value, d=high value; x=conc M; c=IC50 M; b=hill; y=% ctrl.

Substance “(4R)-4-[(1R)-1-[6-[1-(Difluoromethyl)imidazol-4-yl]-2-methyl-pyrazolo[4,3-c]pyridin-4-yl]oxyethyl]pyrrolidin-2-one [Example 83]” has an IC50 of 732 nM.
